Values quoted from earlier work, collected in US20120128665A1, “PRESELECTION OF SUBJECTS FOR THERAPEUTIC TREATMENT BASED ON HYPOXIC STATUS” (SYNTA PHARMACEUTICALS CORP., priority 2010, published 2012).

The chains behind the UniProt entries cited, without tags or fusion partners. Residues count along the entry.
UniProt P35968, 20-1356, species assumed: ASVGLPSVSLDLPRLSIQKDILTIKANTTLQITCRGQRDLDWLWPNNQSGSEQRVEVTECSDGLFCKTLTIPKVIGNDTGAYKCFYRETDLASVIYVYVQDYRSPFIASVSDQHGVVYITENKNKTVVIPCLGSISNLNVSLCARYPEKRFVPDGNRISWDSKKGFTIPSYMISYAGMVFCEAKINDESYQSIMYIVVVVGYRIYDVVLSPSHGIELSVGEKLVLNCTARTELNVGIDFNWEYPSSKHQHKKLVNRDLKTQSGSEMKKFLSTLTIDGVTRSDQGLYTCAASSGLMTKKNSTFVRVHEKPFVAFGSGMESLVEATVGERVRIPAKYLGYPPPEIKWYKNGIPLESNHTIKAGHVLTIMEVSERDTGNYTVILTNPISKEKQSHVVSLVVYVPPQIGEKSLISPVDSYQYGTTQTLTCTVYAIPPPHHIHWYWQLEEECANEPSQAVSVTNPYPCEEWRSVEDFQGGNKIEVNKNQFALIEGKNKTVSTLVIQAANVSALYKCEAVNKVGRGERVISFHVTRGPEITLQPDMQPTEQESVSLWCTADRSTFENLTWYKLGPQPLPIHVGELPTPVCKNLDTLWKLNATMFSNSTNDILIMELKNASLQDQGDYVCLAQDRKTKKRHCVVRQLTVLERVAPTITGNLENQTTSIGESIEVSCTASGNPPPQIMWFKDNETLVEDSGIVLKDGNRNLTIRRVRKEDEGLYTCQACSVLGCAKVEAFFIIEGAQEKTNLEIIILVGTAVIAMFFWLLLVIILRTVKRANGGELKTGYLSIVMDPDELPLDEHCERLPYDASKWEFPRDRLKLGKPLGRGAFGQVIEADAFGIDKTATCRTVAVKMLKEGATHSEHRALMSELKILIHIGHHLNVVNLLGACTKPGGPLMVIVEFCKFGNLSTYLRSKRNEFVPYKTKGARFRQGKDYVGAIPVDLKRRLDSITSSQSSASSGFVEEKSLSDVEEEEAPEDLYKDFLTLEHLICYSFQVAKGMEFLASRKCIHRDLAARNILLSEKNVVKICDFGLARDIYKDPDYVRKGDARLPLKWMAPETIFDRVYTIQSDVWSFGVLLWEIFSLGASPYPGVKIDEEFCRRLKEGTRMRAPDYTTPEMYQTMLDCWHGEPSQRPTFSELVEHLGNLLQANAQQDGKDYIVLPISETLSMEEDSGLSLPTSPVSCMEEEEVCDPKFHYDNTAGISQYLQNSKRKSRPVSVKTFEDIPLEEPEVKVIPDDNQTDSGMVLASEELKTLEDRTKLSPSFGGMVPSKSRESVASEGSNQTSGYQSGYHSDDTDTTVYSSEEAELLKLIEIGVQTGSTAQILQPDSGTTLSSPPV
UniProt P10721, 26-976, species assumed: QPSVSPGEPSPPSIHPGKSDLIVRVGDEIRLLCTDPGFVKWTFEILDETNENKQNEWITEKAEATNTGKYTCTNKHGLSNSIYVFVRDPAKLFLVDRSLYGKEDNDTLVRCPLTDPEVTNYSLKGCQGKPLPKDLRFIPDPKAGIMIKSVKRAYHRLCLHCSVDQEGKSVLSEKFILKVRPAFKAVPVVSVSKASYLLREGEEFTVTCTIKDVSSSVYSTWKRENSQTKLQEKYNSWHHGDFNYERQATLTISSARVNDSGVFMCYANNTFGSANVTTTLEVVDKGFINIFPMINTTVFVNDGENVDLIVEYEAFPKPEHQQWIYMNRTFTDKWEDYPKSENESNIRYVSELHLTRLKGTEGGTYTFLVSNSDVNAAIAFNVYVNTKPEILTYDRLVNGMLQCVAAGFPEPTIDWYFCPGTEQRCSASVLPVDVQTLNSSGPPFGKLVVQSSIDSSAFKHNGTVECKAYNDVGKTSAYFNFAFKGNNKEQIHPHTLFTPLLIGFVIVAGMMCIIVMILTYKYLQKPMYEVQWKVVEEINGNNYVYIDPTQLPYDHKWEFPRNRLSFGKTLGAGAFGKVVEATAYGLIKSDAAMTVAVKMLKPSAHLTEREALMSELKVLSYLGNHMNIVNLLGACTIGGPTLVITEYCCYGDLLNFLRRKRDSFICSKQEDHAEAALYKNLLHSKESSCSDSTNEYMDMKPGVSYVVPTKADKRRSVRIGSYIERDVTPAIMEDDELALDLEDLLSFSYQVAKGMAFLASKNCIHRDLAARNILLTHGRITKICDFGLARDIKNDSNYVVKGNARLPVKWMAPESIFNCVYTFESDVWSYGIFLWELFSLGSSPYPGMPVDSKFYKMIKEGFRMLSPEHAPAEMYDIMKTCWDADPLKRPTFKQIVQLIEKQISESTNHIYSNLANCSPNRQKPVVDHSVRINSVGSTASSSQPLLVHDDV

How the values were obtained:
[1] = molecular target: VEGFR-2 (Homo sapiens, UniProt P35968); settings: in vitro; cited from earlier work
[2] = molecular target: Kit (Homo sapiens, UniProt P10721); settings: in vitro; cited from earlier work

Cc1ccc(Nc2nccc(N(C)c3ccc4c(C)n(C)nc4c3)n2)cc1S(N)(=O)=O.Cl [pazopanib]
ligand-induced autophosphorylation of VEGFR-2 [1]: inhibited | ligand-induced autophosphorylation of Kit [2]: inhibited
